# Source: patent publication US6159704
# Values joined by “and” are separate entries in the source; they are usually repeats but may differ in a detail not shown here. Equal values may be shown once.
# Legend:
# [1] = target: PP2Ac of COS-1 cells (endogenous PP2A catalytic subunit / PP2A activity); assay: 12CA5 immunoprecipitation from transfected COS-1 cells, PP2A activity on 32P-LRRASVA
# [2] = target: PP2Ac of COS-1 cells (endogenous PP2A catalytic subunit / PP2A activity); assay: 12CA5 immunoprecipitation from transfected COS-1 cells, PP2A activity in the precipitate
substance,measurement,setting,value
HA-tagged human eRF1 expressed in COS-1 cells (from UniProt P62495),% immunoprecipitated (of PP2A activity),[1],0.39%
same,PP2A activity in immunoprecipitates (mU),[1],1.9 mU
same,% of the total cytoplasmic PP2A activity brought down,[2],1% and 0.4% to 1.6% (2×)
